Measurements taken from PubChem BioAssay AID743263 (The Scripps Research Institute Molecular Screening Center, 2014).
Only a part is listed here, and it is no random draw. Active and inactive are the calls of the source. No stated cut-off is given here; in the data, active means inhibition above about 25%; inactive means the rest.

Sequences of proteins named here, by UniProt entry; tags and fusion partners are left off. A change or cut given only in a name is not applied to a line headed by its entry.
UniProt O95551: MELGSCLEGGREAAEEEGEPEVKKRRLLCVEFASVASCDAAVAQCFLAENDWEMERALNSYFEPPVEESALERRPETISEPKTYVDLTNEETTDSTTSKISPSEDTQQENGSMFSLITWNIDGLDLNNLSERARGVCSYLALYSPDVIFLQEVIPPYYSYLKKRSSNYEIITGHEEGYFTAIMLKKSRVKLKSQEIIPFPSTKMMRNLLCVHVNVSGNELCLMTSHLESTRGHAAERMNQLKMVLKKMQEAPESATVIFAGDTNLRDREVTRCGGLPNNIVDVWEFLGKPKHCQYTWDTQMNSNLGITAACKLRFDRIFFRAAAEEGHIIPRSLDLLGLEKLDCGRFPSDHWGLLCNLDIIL

Each compound was assayed against Tyrosyl-DNA phosphodiesterase 2 (Homo sapiens) (UniProt O95551) (assay: blockers of TDP2 phosphodiesterase activity – biochemical, epi absorbance, recombinant enzyme, confirmation (AID 743263;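 further: 0% = vehicle with enzyme and 100% = no enzyme buffer only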)). Conditions: recombinant human TDP2, absorbance read-out; at 12.8 µM; active compounds read high.

| SMILES | inhibition |
| --- | --- |
| Nc1cccc2ccc([As](=O)(O)O)cc12 | active: 68.2% |
| CC(=O)c1ccc(N2CC2c2ccncc2)cc1 (stereo not drawn) | inactive: 6% |
| Nc1cccc2c([As](=O)(O)O)cccc12 | active: 39% |
